# Results from ChEMBL document CHEMBL1961873, “Compounds: GSK PKIS; Assays: Nanosyn kinase panel” (2012).
# Only a part is listed here, and it is no random draw.
# Biological target: T1, Mitogen-activated protein kinase 13 (Homo sapiens) (UniProt O15264)
# T1 sequence (whole entry): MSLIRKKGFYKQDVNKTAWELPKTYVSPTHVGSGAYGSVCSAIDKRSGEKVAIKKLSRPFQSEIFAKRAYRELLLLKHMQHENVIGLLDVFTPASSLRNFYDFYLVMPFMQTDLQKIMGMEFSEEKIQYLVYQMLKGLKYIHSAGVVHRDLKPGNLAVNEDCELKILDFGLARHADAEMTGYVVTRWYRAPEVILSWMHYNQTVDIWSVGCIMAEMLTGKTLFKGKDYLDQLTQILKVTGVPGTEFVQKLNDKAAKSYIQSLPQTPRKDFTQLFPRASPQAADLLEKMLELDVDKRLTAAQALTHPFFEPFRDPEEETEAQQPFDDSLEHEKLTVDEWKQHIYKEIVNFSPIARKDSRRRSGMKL
# Conditions: at 0.1 µM
# 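Note: reported value is the mean percent inhibition of p38delta.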
compound,measurement,value
O=C1Nc2ccc(I)cc2C1=Cc1cc(Br)c(O)c(Br)c1,inhibition,3.02%
